Reference: ChEMBL document CHEMBL1124471, “Design and synthesis of inhibitors of N8-acetylspermidine deacetylase” (J Med Chem, 1989)

Substrate: CC(=O)NCCCCNCCCN
Settings: Rattus norvegicus

B1: Peroxisomal N(1)-acetyl-spermine/spermidine oxidase (Homo sapiens), Q6QHF9 (protein)
chain: MESTGSVGEAPGGPRVLVVGGGIAGLGAAQRLCGHSAFPHLRVLEATARAGGRIRSERCFGGVVEVGAHWIHGPSRGNPVFQLAAEYGLLGEKELSQENQLVETGGHVGLPSVSYASSGASVSLQLVAEMATLFYGLIDQTREFLHAAETPVPSVGEYLKKEIGQHVAGWTEDEETRKLKLAVLNSFFNLECCVSGTHSMDLVALAPFGEYTVLPGLDCTFSKGYQGLTNCMMAALPEDTVVFEKPVKTIHWNGSFQEAAFPGETFPVSVECEDGDRFPAHHVIVTVPLGFLREHLDTFFDPPLPAEKAEAIRKIGFGTNNKIFLEFEEPFWEPDCQLIQLVWEDTSPLEDAAPELQDAWFRKLIGFVVLPAFASVHVLCGFIAGLESEFMETLSDEEVLLCLTQVLRRVTGNPRLPAPKSVLRSRWHSAPYTRGSYSYVAVGSTGGDLDLLAQPLPADGAGAQLQILFAGEATHRTFYSTTHGALLSGWREADRLLSLWAPQVQQPRPRL
  Km: 11 µM
